Experiments:
[1] = Effect on spontaneous locomotion in mouse assessed as reduction in distance travelled at 3.4 mg/kg, ip administered for 3 hrs; conditions: in vivo
[2] = Effect on spontaneous locomotion in mouse assessed as reduction in distance travelled at 0.5 mg/kg, ip administered for 3 hrs; conditions: in vivo
[3] = Volume of distribution at steady state in Sprague-Dawley rat at 1 mg/kg, iv administered as single dose by LC-MS/MS analysis; conditions: in vivo
[4] = Half life in Sprague-Dawley rat at 1 mg/kg, iv administered as single dose by LC-MS/MS analysis; conditions: in vivo
[5] = Half life in Sprague-Dawley rat at 10 mg/kg, po administered as single dose by LC-MS/MS analysis; conditions: in vivo
[6] = Effect on spontaneous locomotion in mouse assessed as reduction in distance travelled at 0.5 mg/kg, po administered for 3 hrs; conditions: in vivo
[7] = Aqueous solubility of the compound; conditions: buffer
[8] = Effect on spontaneous locomotion in mouse assessed as reduction in distance travelled at 7.5 mg/kg, ip administered for 2 hrs; conditions: in vivo
[9] = target: Mu-type opioid receptor (Rattus norvegicus, UniProt P33535); assay: Displacement of [3H]DAMGO from rat mu opioid receptor expressed in CHO cell membrane measured after 30 mins by liquid scintillation counting method
[10] = target: Delta-type opioid receptor (Rattus norvegicus, UniProt P33533); assay: Displacement of [3H]DPDPE from rat delta opioid receptor expressed in CHO cell membrane measured after 30 mins by liquid scintillation counting method
[11] = tested on: Mus musculus; assay: Antinociceptive activity in ip dosed Kunming mouse assessed as reduction in acetic acid induced writhing signs measured after 15 mins by abdominal constriction test; conditions: 0.25 h
[12] = tested on: Mus musculus; assay: Antinociceptive activity in ip dosed Kunming mouse by hot plate test
[13] = Effect on spontaneous locomotion in mouse assessed as reduction in distance travelled at 1 mg/kg, ip administered for 3 hrs; conditions: in vivo

Sequences of proteins named here, by UniProt entry; tags and fusion partners are left off.
UniProt P33535, whole entry, looked up: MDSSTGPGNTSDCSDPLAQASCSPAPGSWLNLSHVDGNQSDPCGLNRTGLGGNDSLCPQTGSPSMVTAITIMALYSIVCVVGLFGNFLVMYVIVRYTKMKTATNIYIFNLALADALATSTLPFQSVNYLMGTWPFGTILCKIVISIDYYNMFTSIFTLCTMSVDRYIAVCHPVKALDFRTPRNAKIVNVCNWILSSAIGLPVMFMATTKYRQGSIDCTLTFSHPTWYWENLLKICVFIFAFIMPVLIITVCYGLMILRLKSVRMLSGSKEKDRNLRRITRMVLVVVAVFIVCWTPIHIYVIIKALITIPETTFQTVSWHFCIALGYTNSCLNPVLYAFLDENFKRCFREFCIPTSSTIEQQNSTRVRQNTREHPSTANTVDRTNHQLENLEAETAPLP
UniProt P33533, whole entry, looked up: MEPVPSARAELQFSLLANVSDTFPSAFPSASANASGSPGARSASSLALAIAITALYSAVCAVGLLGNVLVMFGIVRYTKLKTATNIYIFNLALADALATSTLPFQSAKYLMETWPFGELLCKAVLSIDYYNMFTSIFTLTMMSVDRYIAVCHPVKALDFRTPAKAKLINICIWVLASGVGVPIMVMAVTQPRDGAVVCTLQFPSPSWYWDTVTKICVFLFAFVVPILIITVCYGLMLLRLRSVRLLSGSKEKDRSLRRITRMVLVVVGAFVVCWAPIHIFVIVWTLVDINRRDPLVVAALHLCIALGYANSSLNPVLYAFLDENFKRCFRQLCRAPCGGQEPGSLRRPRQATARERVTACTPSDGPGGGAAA

## COc1ccc(CNc2cccc([C@H]3C[C@@]45CC[C@]3(OC)[C@@H]3Oc6c(OC)ccc7c6[C@@]34CCN(CC3CC3)[C@@H]5C7)c2)cc1
[1]
  Activity: Non-Toxic
[2]
  Activity: Non-Toxic
[3]
  Vdss: 3.54 L/kg
[4]
  t1/2: 1.25 h
[5]
  t1/2: 9.89 h
[6]
  Activity: Non-Toxic

## COc1ccc(CNc2cccc([C@H]3C[C@@]45CC[C@]3(OC)[C@@H]3Oc6c(OC)ccc7c6[C@@]34CCN(CC3CC3)[C@@H]5C7)c2)cc1.Cl
[7]
  solubility: 10000 µg/mL

## COc1ccc2c3c1O[C@H]1[C@@]4(OC)C=C[C@@]5(C[C@@H]4C(=O)c4ccccc4)[C@@H](C2)N(CC2CC2)CC[C@]315
[8]
  Activity: Toxic

## CN(C(=O)Cc1ccc(Cl)c(Cl)c1)[C@H]1CCCC[C@@H]1N1CCCC1
[9]
  Ki: 1.4 µM
[10]
  Ki: > 5 µM
[11]
  ED50: 0.89 mg/kg
[12]
  ED50: 4.42 mg/kg

## COc1ccc2c3c1O[C@H]1[C@@]4(OC)CC[C@@]5(C[C@@H]4c4ccc(NC(=O)c6ccccc6)cc4)[C@@H](C2)N(CC2CC2)CC[C@]315.Cl
[7]
  solubility: < 500 µg/mL

## COc1ccc2c3c1O[C@H]1[C@@]4(OC)CC[C@@]5(C[C@@H]4c4ccc(NC(=O)c6ccccc6)cc4)[C@@H](C2)N(CC2CC2)CC[C@]315
[13]
  Activity: Non-Toxic
[3]
  Vdss: 12.7 L/kg
[4]
  t1/2: 4.62 h
[5]
  t1/2: 5.15 h

Reference: ChEMBL document CHEMBL4840326, “Discovery of an M-Substituted N-Cyclopropylmethyl-7α-phenyl-6,14-endoethanotetrahydronorthebaine as a Selective, Potent, and Orally Active κ-Opioid Receptor Agonist with an Improved Central Nervous System Safety Profile” (2021)
